Publication PMC4404319 (ACS Chemical Neuroscience, 2015)
“Also recorded” adds a separate entry of the source.

Tested on: Caco-2 / P-gp
Experiment: Caco-2 two-way permeability / P-gp substrate

Compound: CN1CCN(c2cc(-c3ccncc3)c(-c3ccc4ccccc4c3)nn2)CC1 [MW150, 6-(4-Methylpiperazin-1-yl)-3-(naphthalen-2-yl)-4-(pyridin-4-yl)pyridazine]
- Caco-2 permeability classification: high cell permeability; also recorded: highly permeable
- P-gp substrate status (effect of 1 μM valspodar on bidirectional flux): not a substrate; also recorded: not P-gp substrate
